Data reported in patent publication US12168639B2 (priority 2013, dated 2024).
Only a part of the results on these compounds is given; other tests are left out.

Tests used:
[1] = system: Isolated mitochondria from liver; assay: Mitochondrial respiration (uncoupling) in isolated liver mitochondria; assay type: cell-based, rat; settings: 0, 3.125, 6.25, and 12.5 μM
rat model of NAFLD = assay: NAFLD reversal study (5 days DNPME in high fat/sucrose fed rats)
Protocol: (§1) Rats used for the studies to determine whether DNPME could prevent the development of NAFLD were fed high fat diet and sucrose water for 2 weeks, during which time they were concurrently injected with daily 5 mg/kg IP doses of DNPME in 100% DMSO (250 μl/kg body weight) or vehicle. Rats used for the NAFLD reversal studies were fed high a fat diet and sucrose water for 1 week, then were given daily injections of DNPME or vehicle for 5 days while continuing the high fat diet and sucrose water. To measure caloric intake, the volume of water and weight of food consumed each day were measured, and calorie content was calculated using the known composition of each item.
Following an overnight fast, rats with a jugular venous line were injected with a 1 g/kg intraperitoneal bolus of 50% dextrose. Blood samples were taken through the venous line before and 5, 10, 20, 30, 45, 60, and 90 min after the dextrose injection. Plasma glucose was measured enzymatically on the YSI Life Sciences 2700 Select Biochemistry Analyzer (Yellow Springs, OH), and plasma insulin was measured by radioimmunoassay. Area under the curve was measured from time point A to subsequent time point B according to the following formula: […]
Hyperinsulinemic-englycemic clamps were performed and basal and insulin-stimulated glucose turnover were measured using [6,6]^2H glucose (Erion et al., 2013, Endocrinology 154:36-44). To measure insulin-stimulated glucose uptake in heart and quadriceps muscle, [^14C]2-deoxyglucose was injected at the conclusion of the clamp, and tissues processed (Samuel et al., 2007, J. Clin. Invest. 117:739-745).
PKCε translocation in liver and PKCO translocation in muscle from 6-hour fasted rats in the NAFLD treatment study were measured by Western blot (Choi et al., 2007, Proc. Natl. Acad. Sci. USA 104:16480-16485).
Triacylglycerol (TAG) in liver and quadriceps muscle were extracted (Bligh & Dyer, 1959, Can. J. Biochem. Physiol. 37:911-917) and measured spectrophotometrically with Diagnostic Chemicals triglyceride reagent (Diagnostic Chemicals Ltd [DCL], Charlottetown, Canada). Liver and quadriceps diacylglycerol (DAG) were extracted by homogenization in a buffer containing 20 mM Tris-HCl, 1 mM EDTA, 0.25 mM EGTA, 250 mM sucrose, 2 mM phenylmethylsulfonyl fluoride, and a protease inhibitor mixture (Roche, Indianapolis, Indiana). The cytosolic fragment was isolated from the supernatant after high speed centrifugation for 1 hour. Diacylglycerol (DAG) and ceramide content was measured by liquid chromatography/mass spectrometry/mass spectrometry (Bligh & Dyer, 1959, Can. J. Biochem. Physiol. 37:911-917).
To measure liver triglyceride export, 300 mg/kg of a lipoprotein lipase (LPL) inhibitor, Poloxamer 407 (Sigma, St. Louis, MO) was injected, and plasma was sampled at time 0, 1, 2, 3, and 4 hours after treatment. Plasma triglyceride concentration was measured using the DCL triglyceride reagent. […] Thus, the slope of the least-squares regression of the graph of plasma triglyceride concentration versus time (Microsoft Excel, Redmond, WA) was considered to be the TAG export rate. Tissue ceramide content was measured by LC/MS/MS (Yu et al., 2002, J. Biol. Chem. 277:50230-50236).
Hepatic glycogen content was assessed by amyloglucosidase digestion (Passonneau & Lauderdale, 1974, Anal. Biochem. 60:405-412).
Plasma concentrations of twelve inflammatory markers were measured by ELISA (QIAGEN, Valencia, CA). Adiponectin was measured by ELISA. Lactate was measured by COBAS, and FGF-21 by ELISA (Millipore).

rats = assay: 50% lethal dose (LD50) determination
Protocol: For the acute toxicity studies, rats were treated with an IP injection of DNPME in 100% DMSO at doses 1, 2.5, 5, 10, 25, 50, 100, and 200 mg/kg body weight. Rectal temperature was measured with a microprobe thermometer (Physitemp Instruments, Clifton, NJ) at intervals up to 2 hours after injection of the drug. Rectal temperature was measured weekly in a separate group of rats injected daily with DNPME or vehicle for 6 weeks. A separate group of rats were injected with increasing doses of DNP or DNPME in 100% DMSO to determine the 50% lethal dose (LD50). The 50% lethal dose was taken to be the dose at which 50% of rats died within 24 hours of treatment.

rats fed high fat diet = assay: NAFLD prevention study (2 weeks high fat diet with concurrent daily DNPME)
Protocol: as §1

[2] = system: Isolated mitochondria from brain; assay: Mitochondrial respiration (uncoupling) in isolated brain mitochondria; assay type: cell-based, rat; settings: 0, 3.125, 6.25, and 12.5 μM
[3] = high fat diet two weeks, daily 5 mg/kg

With COc1ccc([N+](=O)[O-])cc1[N+](=O)[O-] the “mitochondrial uncoupling (oxygen consumption)” value [1] was “uncoupling of liver”, the fasting plasma glucose (rat model of NAFLD; 5 days daily DNPME vs vehicle) was “lower” and the fasting plasma insulin (rat model of NAFLD; 5 days daily DNPME vs vehicle) was “lower”. The fasting plasma triglyceride (rat model of NAFLD; 5 days daily DNPME vs vehicle) was “lower”, the “reduction in liver TAG export” value (rat model of NAFLD; Poloxamer 407, vs vehicle) was 50% and the “hepatic and peripheral insulin sensitivity” value (rat model of NAFLD; clamp, vs vehicle) was “marked improvement”. The “insulin-stimulated glucose uptake in skeletal muscle” value (rat model of NAFLD; clamp, vs vehicle) was “more than two-fold increase”, the NAFLD (rat model of NAFLD; high fat fed rats) was “reverses” and the “basal hepatic glucose production” value (rat model of NAFLD; high fat fed rats) was “corrects”. For the same compound, the “glucose infusion rate required to maintain euglycemia” value (rat model of NAFLD; hyperinsulinemic-euglycemic clamp, vs vehicle) was “greater than three-fold increase”, the cardiac glucose uptake (rat model of NAFLD; insulin resistant rodent model of NAFLD) was “increases” and the “PKCε translocation in liver” value (rat model of NAFLD; vs vehicle) was “reduced”. For the same compound, the “PKCθ translocation in muscle” value (rat model of NAFLD; vs vehicle) was “reduced”, the “glucose tolerance (plasma glucose and insulin in intraperitoneal glucose tolerance test)” value (rat model of NAFLD; vs vehicle) was “much more glucose tolerant” and the “reduction in basal endogenous glucose production” value (rat model of NAFLD; vs vehicle) was 20%. The “reduction in liver TAG” value (rat model of NAFLD; vs vehicle) was 40-50%, the “reduction in liver diacylglycerol (DAG) content” value (rat model of NAFLD; vs vehicle) was 40-50% and the “reduction in muscle TAG” value (rat model of NAFLD; vs vehicle) was 40-50%. For the same compound, the “reduction in muscle diacylglycerol (DAG) content” value (rat model of NAFLD; vs vehicle) was 40-50%, the “LD50 dose relative to that of DNP” value (rats; death within 24 hours of treatment) was “almost tenfold higher” and the “therapeutic index (LD50/ED50)” value (rats; rat, in vivo) was 70. For the same compound, the hepatic insulin resistance (rats fed high fat diet; [3]) was “prevents”, the “peripheral muscle insulin resistance” value (rats fed high fat diet; [3]) was “prevents” and the NAFLD (rats fed high fat diet; rat, in vivo) was “prevents”. The glucose intolerance (rats fed high fat diet; rat, in vivo) was “prevents”, the “skeletal muscle triglyceride accumulation” value (rats fed high fat diet; rat, in vivo) was “prevents” and the “mitochondrial uncoupling (oxygen consumption)” value [2] was “not brain”.
